The text below walks through data of PMC11452043, “In vitro 5-LOX inhibitory and antioxidant potential of isoxazole derivatives” (PLOS ONE, 2024).

Protein sequences, listed by entry. Tags and fused reporters are not part of them.
UniProt P09917, whole entry: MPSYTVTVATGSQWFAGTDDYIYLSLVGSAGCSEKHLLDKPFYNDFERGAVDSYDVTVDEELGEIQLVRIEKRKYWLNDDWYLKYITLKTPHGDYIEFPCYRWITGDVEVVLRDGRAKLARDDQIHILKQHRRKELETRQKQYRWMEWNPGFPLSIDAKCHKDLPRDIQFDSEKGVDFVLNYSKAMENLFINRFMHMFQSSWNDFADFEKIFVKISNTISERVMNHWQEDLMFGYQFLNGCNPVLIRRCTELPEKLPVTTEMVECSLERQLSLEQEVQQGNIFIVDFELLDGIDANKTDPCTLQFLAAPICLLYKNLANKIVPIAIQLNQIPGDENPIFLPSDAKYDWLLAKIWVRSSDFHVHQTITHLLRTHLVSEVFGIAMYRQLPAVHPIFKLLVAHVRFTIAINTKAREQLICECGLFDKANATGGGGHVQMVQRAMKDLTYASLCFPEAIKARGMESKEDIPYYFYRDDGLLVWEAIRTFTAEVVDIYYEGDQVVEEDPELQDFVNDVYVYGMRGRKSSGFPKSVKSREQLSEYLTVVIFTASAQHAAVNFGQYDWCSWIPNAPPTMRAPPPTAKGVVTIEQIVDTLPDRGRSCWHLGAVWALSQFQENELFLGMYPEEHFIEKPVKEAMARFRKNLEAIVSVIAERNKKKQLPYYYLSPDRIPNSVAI

Several values for one entry are separate records, joined by “and”; a condition that tells them apart may be missing. Equal values may be shown once.

The target in test [1] is 5-lipoxygenase (5-LOX) enzyme (Homo sapiens, UniProt P09917). As to the kind of experiment: 5-LOX inhibitory assay. As to conditions: for 5-LOX percent inhibition: mean ± SEM, n = 3; for IC50: read-out: 5-LOX IC50.
Test [2] is described as follows: DPPH free radical scavenging (antioxidant) assay. As to conditions: for DPPH percent inhibition: mean ± SEM, n = 3; for IC50: read-out: DPPH IC50. The protocol:
The previously outlined methodology will be employed to evaluate the compounds’ antioxidant ability, as determined by the processes of the 1,1-diphenyl, 2-picrylhydrazyl (DPPH) free radical. The experimental specimens will be subjected to dilution using different quantities, spanning from 62.5 to 1000 μg/ml, and afterwards introduced into a methanolic solution of DPPH at a concentration of 0.004%. At 517 nm, the absorbance will be determined by a UV spectrophotometer following a 30-minute duration. The scavenging capability of ascorbic acid will be quantified by employing the equation: DPPH=[(A0−A1)/A0]100 Whereas: […]
Every test was carried out three times, and the median inhibitory dosages (IC50) were determined. The drawing of inhibition graphs was performed by GraphPad Prism software-GraphPAD, San Diego, California, USA.
The IC50 is the concentration of the antioxidant required to scavenge 50% of the initial DPPH radicals. […] The IC50 values were determined from dosage response curve using Microsoft Excel program.
In general terms: Loss of DPPH colour is used to gauge radical scavenging.

For `COc1ccc(C2NC(=O)NC(C(F)(F)F)=C2c2cc(-c3ccccc3)on2)cc1O` (stereo not drawn), the 5-LOX percent inhibition in test [1] (62.5 μg/ml) is on record as 74.80±1.41%; in test [1] (125 μg/ml) it was 77.51±0.59%; in test [1] (250 μg/ml), 81.90±1.32%; in test [1] (500 μg/ml), 85.94±0.91%; in test [1] (1000 μg/ml), 89.93±1.73%. The values for the IC50 in test [1] and in test [2] were 8.47 µM and 11 µM, respectively. Besides, the DPPH percent inhibition in test [2] (62.5 μg/mL) came to 75.72±0.51%; in test [2] (125 μg/mL) it was 79.37±0.69%; in test [2] (250 μg/mL), 82.25±0.55%; in test [2] (500 μg/mL), 87.65±0.70%; in test [2] (1000 μg/mL), 92.51±0.62%.
Consider `Cc1ccc(C2NC(=O)NC(C(F)(F)F)=C2c2cc(-c3ccco3)on2)cc1` (stereo not drawn), for which the 5-LOX percent inhibition is 71.03±1.79% in test [1] (62.5 μg/ml); 75.30±1.67% in test [1] (125 μg/ml); 78.30±2.67% in test [1] (250 μg/ml); 82.31±1.20% and 82.7% in test [1] (500 μg/ml); 86.70±1.20% in test [1] (1000 μg/ml). In addition, the IC50 was 9.8 µM in test [1] and 54.7 µM in test [2]. The DPPH percent inhibition in test [2] (62.5 μg/mL) is listed as 61.35±0.18%; in test [2] (125 μg/mL), 66.2%; in test [2] (250 μg/mL), 73.42%; in test [2] (500 μg/mL), 78.62%; in test [2] (1000 μg/mL), 83.53±0.20%.

The IC50 is the concentration that inhibits the measured activity by half.
